# Data as given in patent publication US20210361768A1, “METHODS AND MATERIALS FOR ASSESSING AND TREATING CANCERS” (Mayo Foundation for Medical Education and Research, priority 2018, published 2021).
# How the values were obtained:
# [1] = system: HER2-positive breast cancer; test: NeoALTTO trial: pathologic complete response and event-free survival by treatment arm and adaptive immune signature (AIS) status; format: in vivo, human; details: for %6-yr EFS (6-year Event Free Survival rate) / % pCR (complete pathological response rate): NeoALTTO patients
# [2] = system: HER2-positive breast cancer; test: NCCTG N9831 trial: recurrence-free survival by treatment arm and CD45 mTIL / AIS status; format: in vivo, human
# Source text: A total of 1,280 patients from the NCCTG N9831 (Perez EA et al., Journal of clinical oncology: official journal of the American Society of Clinical Oncology, 32:3744-52 (2014)), 168 patients in FinHer (Joensuu H et al., N Engl. J. Med, 354:809-20 (2006)), and 170 patients in FinXX (Joensuu H et al., Journal of clinical oncology: official journal of the American Society of Clinical Oncology, 30:11-8 (2012)), were included in this analysis. […] In the FinXX trial (Joensuu H et al., Journal of clinical oncology: official journal of the American Society of Clinical Oncology, 30:11-8 (2012)), patients were randomized to receive either 3 cycles of docetaxel and capecitabine followed by 3 cycles of cyclophosphamide, epirubicin, and capecitabine (TX/CEX) or 3 cycles of docetaxel followed by 3 cycles of cyclophosphamide, epirubicin, and fluorouracil (T/CEF). […] Median follow-up was 10.6 years (range 0.8 months-15.3 years) in the NCCTG N9831 trial, 5.5 years in the FinHER trial, and 7.0 years in the FinXX trial.
# NanoString™ technology was used to quantify mRNA in paraffin embedded tumor samples from the NCCTG N9831, FinHER, and FinXX trials. Immune subset signatures were calculated using normalized and log2 transformed data based on previous publication by Danaher et al. (Danaher P et al., J Immunother Cancer, 5:18 (2017)). The geometric mean across relevant genes listed in the table below was calculated to generate the composite score for each immune subset signature, namely CD45, B cells, CD8 T cells, cytotoxic cells, exhausted CD8, immature dendritic cells (iDC), macrophages, mast cells, neutrophils, NK CD56 dim cells, T cells, and regulatory T cells (Treg). The score was mean-centered and standardized in all analyses.
# For outcome analysis, recurrence-free survival (RFS) was defined as the time from random assignment to breast cancer recurrence (local, regional, or distant recurrence of breast cancer or breast cancer-related death). The time to event for patients who died without recurrence was considered censored at the time of death.
# [3] = AIS deficient, listed as trastuzumab
substance,measurement,setting,value
Trastuzumab: humanized IgG1 κ monoclonal antibody against extracellular domain of human epidermal growth factor receptor 2 (HER2),"OR for pCR, enriched AIS compared to deficient AIS","[1]; NeoALTTO arm B, 95% CI 2.25-54.42, p=0.0004",9.12
same,%6-yr EFS (6-year Event Free Survival rate),[1]; AIS deficient,63%
same,% pCR (complete pathological response rate),[1]; AIS deficient,8%
same,%6-yr EFS (6-year Event Free Survival rate),[1]; [3],63%
same,% pCR (complete pathological response rate),[1]; [3],8%
same,% pCR (complete pathological response rate),[1]; AIS enrich,43%
same,% pCR (complete pathological response rate),"[1]; AIS enrich, listed as trastuzumab",43%
same,"Benefit from treatment (outcome, in words)","[2]; NCCTG N9831, both AIS deficient and enriched groups, particularly when given in a concurrent fashion",benefit
same,"HR for RFS, CD45 enrichment vs no enrichment","[2]; NCCTG N9831 arm C (AC-TH), 95% CI 0.49-1.28, p=0.34",0.79
same,10-year Kaplan-Meier estimate for RFS,"[2]; NCCTG N9831 arm C (trastuzumab concurrently with chemotherapy, AC-TH), patients with CD45 enrichment",83.6%
same,10-year Kaplan-Meier estimate for RFS,"[2]; NCCTG N9831 arm C (trastuzumab concurrently with chemotherapy, AC-TH), patients with no CD45 enrichment",79.8%
same,10-year Kaplan-Meier estimate for RFS,"[2]; NCCTG N9831 sequential trastuzumab arm (AC-T-H), patients with CD45 enrichment",81.3%
same,10-year Kaplan-Meier estimate for RFS,"[2]; NCCTG N9831 sequential trastuzumab arm (AC-T-H), patients with no CD45 enrichment",72.6%
same,"HR for RFS, CD45 enrichment vs no enrichment","[2]; NCCTG N9831 sequential trastuzumab arm (AC-T-H), 95% CI 0.42-0.93, p=0.02",0.63
